Test results as given in patent US9415103B2, “Combination therapy to prevent DCIS formation and progression to breast cancer” (Yeda Research and Development Co. Ltd., priority 2011, dated 2016).

Key:
[1] = system: c-Myc and Cyclin D1 in MCF10A-HER2 spheroids; assay: Immunoblotting of c-Myc and Cyclin D1 in spheroids grown in Matrigel; assay type: cell-based, human; conditions: spheroids grown 4 days in Matrigel, then Trastuzumab (10 μg/ml) and/or GSI (1 μM) for two days; FIG. 4B
Protocol: FIGS. 4A-G illustrate that Notch3 promotes survival of HER2-overexpressing mammary cells. (4A) The relative expression levels of transcripts corresponding to c-Myc and Cyclin D1 (CCND1) were determined by applying quantitative real-time PCR to RNA samples from MCF10A and MCF10A-HER2 spheroids. (4B) MCF10A and MCF10A-HER2 cells were grown in Matrigel™ for 4 days and then the resulting spheroids were incubated in the presence of Trastuzumab (10 μg/ml) and/or a gamma-secretase inhibitor (GSI, 1 μM). Two days later, cells were extracted and subjected to immunoblotting, as indicated. (4C) Monolayers of MCF10A-HER2 cells stably transduced with control or Notch3 shRNAs were lysed and immunoblotted for c-Myc and Cyclin D1. […] The fraction of lumen-filled spheroids on day 8 was quantified by counting 100 spheroids in each treatment group. […] The fractions of filled spheroids were determined as in FIG. 4F.
Morphogenesis assays: Cells were gently trypsinized, washed and re-suspended in assay medium (DME/F12 supplemented with 2% horse serum, 10 μg/ml insulin, 1 ng/ml cholera toxin, 100 μg/ml hydrocortisone, and antibiotics) to a concentration of 10^5 cells per 4.0 ml. […] Each morphometric quantification was performed in triplicates and repeated thrice. […]

MCF10A-HER2 spheroids = assay: Morphogenesis assay in Matrigel: luminal filling and cleaved Caspase-3 staining by confocal microscopy; assay type: cell-based, human; conditions: spheroids grown 4 days, then Trastuzumab and/or GSI for up to 4 additional days; FIG. 4F
Protocol: FIGS. 3A-D illustrate that enhanced survival and proliferation of HER2-overexpressing cells are enabled by Notch3. (3A) Extracts of monolayers of MCF10A cells and MCF10A-HER2 cells stably expressing control shRNA or shRNA targeting Notch3 were immunoblotted with the indicated antibodies. (3B) Proliferation of monolayer MCF10A and MCF10A-HER2 cells stably expressing the indicated shRNAs was determined using the MTT assay. Averages and standard deviation values (bars) of triplicates are presented. […] The number of spheroids per well was determined in triplicates and the average and standard deviations (bars) are presented (lower left panel). […] The bar graph presents the average fractions (±S.D., bars) of lumen-filled spheroids, as determined by analyzing 100 spheroids of each group.
FIGS. 4A-G illustrate that Notch3 promotes survival of HER2-overexpressing mammary cells. (4A) The relative expression levels of transcripts corresponding to c-Myc and Cyclin D1 (CCND1) were determined by applying quantitative real-time PCR to RNA samples from MCF10A and MCF10A-HER2 spheroids. […] The fraction of lumen-filled spheroids on day 8 was quantified by counting 100 spheroids in each treatment group. […] The fractions of filled spheroids were determined as in FIG. 4F. […]

## Trastuzumab
[1]
  c-Myc and Cyclin D1 protein levels: reduced
MCF10A-HER2 spheroids
  apoptosis of luminal cells (cleaved Caspase-3): enhanced
